We go through one compound from patent US10344060B2 (priority 2013, dated 2019).

Chains of the proteins cited; added tags and fusions are not shown.
UniProt Q9UQD0, whole entry: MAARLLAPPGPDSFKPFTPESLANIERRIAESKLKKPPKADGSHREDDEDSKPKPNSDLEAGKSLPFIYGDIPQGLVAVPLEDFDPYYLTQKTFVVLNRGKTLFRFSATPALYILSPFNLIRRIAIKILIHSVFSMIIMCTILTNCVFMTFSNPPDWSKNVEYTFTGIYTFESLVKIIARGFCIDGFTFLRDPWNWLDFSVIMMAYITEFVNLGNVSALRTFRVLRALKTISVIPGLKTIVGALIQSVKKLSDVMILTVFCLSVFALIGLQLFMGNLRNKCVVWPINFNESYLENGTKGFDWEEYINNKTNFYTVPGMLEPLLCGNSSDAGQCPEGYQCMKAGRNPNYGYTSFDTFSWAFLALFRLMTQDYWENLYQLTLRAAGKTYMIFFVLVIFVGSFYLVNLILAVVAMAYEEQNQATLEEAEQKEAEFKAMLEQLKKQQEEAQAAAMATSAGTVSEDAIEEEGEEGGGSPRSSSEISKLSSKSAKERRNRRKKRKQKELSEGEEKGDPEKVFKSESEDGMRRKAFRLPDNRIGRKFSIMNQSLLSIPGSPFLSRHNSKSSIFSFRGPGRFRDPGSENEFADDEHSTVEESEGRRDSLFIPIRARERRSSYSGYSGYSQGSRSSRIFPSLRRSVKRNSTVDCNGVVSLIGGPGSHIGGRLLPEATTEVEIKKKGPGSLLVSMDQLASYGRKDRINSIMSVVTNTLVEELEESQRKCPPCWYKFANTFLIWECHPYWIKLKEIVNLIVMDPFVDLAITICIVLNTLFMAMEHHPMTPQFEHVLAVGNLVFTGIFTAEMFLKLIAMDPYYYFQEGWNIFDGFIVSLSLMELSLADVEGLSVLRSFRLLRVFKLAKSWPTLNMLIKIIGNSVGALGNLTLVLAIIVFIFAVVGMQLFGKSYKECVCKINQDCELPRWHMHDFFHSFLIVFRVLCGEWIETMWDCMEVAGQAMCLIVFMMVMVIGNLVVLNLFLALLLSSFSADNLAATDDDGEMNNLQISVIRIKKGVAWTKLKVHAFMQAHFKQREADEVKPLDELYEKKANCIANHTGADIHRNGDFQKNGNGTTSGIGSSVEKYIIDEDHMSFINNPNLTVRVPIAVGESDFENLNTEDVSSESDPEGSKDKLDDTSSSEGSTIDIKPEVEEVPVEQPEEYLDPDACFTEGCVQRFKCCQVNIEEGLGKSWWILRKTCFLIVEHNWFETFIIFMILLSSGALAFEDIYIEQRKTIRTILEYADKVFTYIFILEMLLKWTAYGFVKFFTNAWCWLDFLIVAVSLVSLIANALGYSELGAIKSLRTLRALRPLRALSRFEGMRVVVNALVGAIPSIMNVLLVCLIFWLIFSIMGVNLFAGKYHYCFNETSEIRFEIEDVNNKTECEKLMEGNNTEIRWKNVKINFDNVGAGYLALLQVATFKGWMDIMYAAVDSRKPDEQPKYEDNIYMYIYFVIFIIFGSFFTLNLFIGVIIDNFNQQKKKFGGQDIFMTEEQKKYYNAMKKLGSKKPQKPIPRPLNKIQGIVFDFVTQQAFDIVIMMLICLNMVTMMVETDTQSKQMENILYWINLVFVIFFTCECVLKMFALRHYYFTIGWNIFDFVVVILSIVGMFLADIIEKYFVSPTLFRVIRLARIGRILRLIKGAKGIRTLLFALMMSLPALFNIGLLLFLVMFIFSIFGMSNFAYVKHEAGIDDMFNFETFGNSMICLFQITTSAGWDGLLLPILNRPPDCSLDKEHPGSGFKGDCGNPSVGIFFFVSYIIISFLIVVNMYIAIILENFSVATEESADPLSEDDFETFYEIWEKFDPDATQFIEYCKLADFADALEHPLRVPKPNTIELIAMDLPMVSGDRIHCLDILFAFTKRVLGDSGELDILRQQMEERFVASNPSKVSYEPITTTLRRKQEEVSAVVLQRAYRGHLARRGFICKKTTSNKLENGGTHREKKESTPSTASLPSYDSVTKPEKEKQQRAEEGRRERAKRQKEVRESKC
UniProt Q15858, whole entry: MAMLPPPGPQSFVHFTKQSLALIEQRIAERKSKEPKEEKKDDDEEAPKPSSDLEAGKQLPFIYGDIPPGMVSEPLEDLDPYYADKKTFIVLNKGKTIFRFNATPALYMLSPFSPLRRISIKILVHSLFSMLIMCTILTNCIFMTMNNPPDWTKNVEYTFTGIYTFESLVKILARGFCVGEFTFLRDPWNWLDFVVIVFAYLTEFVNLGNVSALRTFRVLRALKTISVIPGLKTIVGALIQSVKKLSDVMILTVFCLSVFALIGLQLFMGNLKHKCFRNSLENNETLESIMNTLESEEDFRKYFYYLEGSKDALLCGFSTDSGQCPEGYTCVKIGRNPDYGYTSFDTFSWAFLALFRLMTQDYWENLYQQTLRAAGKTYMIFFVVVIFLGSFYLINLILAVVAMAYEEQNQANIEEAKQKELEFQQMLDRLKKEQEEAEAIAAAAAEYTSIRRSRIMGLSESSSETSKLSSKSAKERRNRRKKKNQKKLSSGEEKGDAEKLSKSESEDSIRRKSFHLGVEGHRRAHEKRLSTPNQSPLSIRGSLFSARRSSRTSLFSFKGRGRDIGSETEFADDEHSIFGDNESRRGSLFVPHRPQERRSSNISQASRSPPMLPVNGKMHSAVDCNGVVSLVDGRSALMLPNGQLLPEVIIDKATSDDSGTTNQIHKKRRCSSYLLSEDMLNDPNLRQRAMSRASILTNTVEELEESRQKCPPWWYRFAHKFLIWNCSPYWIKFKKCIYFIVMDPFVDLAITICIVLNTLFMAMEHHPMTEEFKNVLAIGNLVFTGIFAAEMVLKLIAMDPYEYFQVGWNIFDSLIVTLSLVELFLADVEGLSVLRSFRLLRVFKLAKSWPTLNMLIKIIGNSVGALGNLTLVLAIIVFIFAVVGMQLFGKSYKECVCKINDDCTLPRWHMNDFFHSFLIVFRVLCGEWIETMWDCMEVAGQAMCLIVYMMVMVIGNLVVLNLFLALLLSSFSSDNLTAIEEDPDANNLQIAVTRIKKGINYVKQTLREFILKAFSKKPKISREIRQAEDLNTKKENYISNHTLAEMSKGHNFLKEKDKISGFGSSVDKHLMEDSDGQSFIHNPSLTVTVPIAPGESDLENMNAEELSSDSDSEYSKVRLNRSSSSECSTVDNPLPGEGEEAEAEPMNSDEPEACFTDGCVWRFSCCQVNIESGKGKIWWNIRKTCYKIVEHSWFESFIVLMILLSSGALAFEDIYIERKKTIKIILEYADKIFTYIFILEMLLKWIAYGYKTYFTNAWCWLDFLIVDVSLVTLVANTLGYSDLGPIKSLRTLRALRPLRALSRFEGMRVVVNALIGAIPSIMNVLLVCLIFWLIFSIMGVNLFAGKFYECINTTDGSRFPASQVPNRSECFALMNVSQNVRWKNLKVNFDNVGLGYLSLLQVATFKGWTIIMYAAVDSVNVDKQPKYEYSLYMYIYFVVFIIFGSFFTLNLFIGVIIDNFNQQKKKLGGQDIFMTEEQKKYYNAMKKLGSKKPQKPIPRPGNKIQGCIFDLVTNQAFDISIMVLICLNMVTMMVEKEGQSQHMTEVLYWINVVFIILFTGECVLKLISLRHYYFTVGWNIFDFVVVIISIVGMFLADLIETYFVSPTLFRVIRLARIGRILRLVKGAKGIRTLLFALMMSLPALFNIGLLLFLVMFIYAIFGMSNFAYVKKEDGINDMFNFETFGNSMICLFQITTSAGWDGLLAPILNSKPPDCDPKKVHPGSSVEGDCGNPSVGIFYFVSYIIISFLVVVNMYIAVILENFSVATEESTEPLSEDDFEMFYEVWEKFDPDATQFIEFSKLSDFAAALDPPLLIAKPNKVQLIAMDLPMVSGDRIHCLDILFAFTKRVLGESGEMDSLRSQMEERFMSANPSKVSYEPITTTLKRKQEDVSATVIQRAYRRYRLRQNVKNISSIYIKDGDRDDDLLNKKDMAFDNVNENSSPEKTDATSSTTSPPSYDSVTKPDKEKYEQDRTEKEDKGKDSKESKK

SMILES strings stand for the structures. pIC50: −log10 of the molar value. Read-outs that look alike come from different tables or passages of the source. Some results are limits rather than exact numbers.

One assay deals with hNav1.6 (Homo sapiens, UniProt Q9UQD0). The experiment in a line: cell-based. The following applies: Table 15; read-out: PX hNav1.6 Tonic IC50.
In a further assay the target is hNav1.7 (Homo sapiens, UniProt Q15858). The experiment in a line: cell-based. The following applies: read-out: PX hNav1.7 Tonic IC50.

`C#CC[C@H](N)C(=O)N[C@@H](Cc1ccc(O)cc1)C(=O)N[C@H]1CSSC[C@@H]2NC(=O)[C@@H]3CSSC[C@@H](C(=O)N[C@@H](CCCNC(=N)N)C(=O)N[C@@H](CCCCN)C(=O)N[C@@H](CCC(=O)O)C(=O)N[C@H](C(N)=O)[C@@H](C)CC)NC(=O)[C@H](Cc4c[nH]c5ccccc45)NC(=O)[C@H](CC(C)C)NC(=O)[C@H](CCCCN)NC(=O)[C@H](CSSC[C@H](NC(=O)[C@H]([C@@H](C)O)NC(=O)[C@H](Cc4c[nH]c5ccccc45)NC(=O)[C@H](CCCC)NC(=O)[C@H](Cc4c[nH]c5ccccc45)NC(=O)[C@H](CCCCN)NC(=O)[C@H](CCC(N)=O)NC1=O)C(=O)N[C@@H](CC(=O)O)C(=O)N[C@@H](CO)C(=O)N[C@@H](CCCCN)C(=O)N[C@@H](CCCNC(=N)N)C(=O)N[C@@H](C)C(=O)N3)NC(=O)[C@H](CCCNC(=N)N)NC(=O)[C@H](CCC(=O)O)NC(=O)CNC(=O)[C@H](CCC(=O)O)NC2=O` [compound 720]: the pIC50 on hNav1.6 is under 5.00; at hNav1.7 (Table 12, PatchXpress, tonic block), under 6.00; on hNav1.7 (Table 15), under 6.00.
